{"source": "patent US11744842B2", "about": "“Methods for the effective treatment of metastatic cancer” (General Oncology, Inc., priority 2012, dated 2023)", "origin": "cited, not measured here", "tested_on": "normal fibroblasts", "settings": "with the combination of BCNU and doxorubicin; cited from earlier work", "data": [{"compound": "N[C@@H](Cc1ccc(N(CCCl)CCCl)cc1)C(=O)O", "note": "[melphalan]", "values": [{"measurement": "change in melphalan cytotoxicity", "result": "No increase"}]}]}
